Measurements taken from patent EP4837574A1, “USE OF DNJ OR DERIVATIVE THEREOF IN PREPARING ANTI-SENESCENCE DRUG” (dated 2026).

What was measured:
SASP factors = assay: qRT-PCR of SASP factor mRNA, H2O2-induced senescence of Huvec cells, pre-administration (Example 8); conditions: 30 µM DNJ pre-administration 24 hours, then 200 µM H2O2 24 hours; compared with H2O2 group; FIG. 16
From the text: The activity of drugs to inhibit a senescence-associated inflammatory phenotype was detected in a stress-induced senescence model of human umbilical vein endothelial cells induced by H2O2. […]
The operation procedure for cell RNA extraction is as follows: A culture solution was sucked out from a culture dish, and the cells were washed once with a 1× PBS buffer solution. […] RNA concentrations of samples were detected using a Nano-100 micro-spectrophotometer, RNA purities were detected based on absorbance at 260/280 nm, and the samples were finally stored at -80°C.
The operation procedure for reverse transcription and qRT-PCR reactions of cell RNA samples is as follows: • (1) Removal of genomic DNA. According to the corresponding RNA concentrations, the required volumes of RNase free water and RNA were calculated. […]

[1] = test system: human umbilical vein endothelial cells (Huvec cells); assay: SA-β-Gal staining, replicative senescence by continuous passage (Example 5); conditions: 30 µM DNJ 24 hours; cells of the 6th, 9th, and 12th generations; compared with an untreated group; FIG. 13
Protocol: The workflow for SA-β-Gal staining of the cells is as follows: For the cells cultured in a 6-well plate, a cell culture solution was sucked away, the cells were washed 1 time with PBS, and 1 mL of an SA-β-Gal staining fixative was added for fixation at room temperature for 15 minutes. For other types of culture plates, the dosages of the fixative and subsequent solutions were used in operation with reference to this ratio. The cell fixative was sucked away, and the cells were washed 3 times with PBS, for 3 minutes each time. PBS was sucked away, and 1 mL of a staining working solution was added to each well. A method for formulating the staining working solution is as follows: A β-galactosidase staining solution A (10 µL), a β-galactosidase staining solution B (10 µL), a β-galactosidase staining solution C (930 µL), and an X-Gal solution (50 µL) were used. The cells were incubated overnight at 37°C, and the 6-well plate was sealed with a parafilm or a plastic wrap to prevent evaporation. […]
The anti-aging activity of drugs was detected in a replicative senescence model of human umbilical vein endothelial cells induced by continuous passage. […]

OC[C@H]1NC[C@H](O)[C@@H](O)[C@@H]1O
increase in the mRNA expression of SASP factors (SASP factors): significantly inhibited
number of SA-β-Gal staining-positive cells and the degree of senescence [1]: significantly reduces
